# Test system: HCT116 cells
# Test: Mitochondrial Tox-Glo assay (oxidative phosphorylation)
# Conditions: 90 min; glucose-containing or galactose-supplemented medium
compound,measurement,value
CCCCCC[C@H]1C(=O)O[C@H](C)[C@H](NC(=O)c2cccc(NC=O)c2O)C(=O)O[C@@H](C)[C@@H]1OC(=O)CC(C)C,effect on ATP production/synthesis,significantly decreased ATP production

# From article PMC9376960, “Ruthenium(II)–Tris-pyrazolylmethane Complexes Inhibit Cancer Cell Growth by Disrupting Mitochondrial Calcium Homeostasis” (Journal of Medicinal Chemistry, 2022)
